# Assays:
# The chains behind the UniProt entries cited, without tags or fusion partners. Where a name states a change or a piece, a line headed by the entry shows the natural chain unless it says otherwise.
# UniProt P31421: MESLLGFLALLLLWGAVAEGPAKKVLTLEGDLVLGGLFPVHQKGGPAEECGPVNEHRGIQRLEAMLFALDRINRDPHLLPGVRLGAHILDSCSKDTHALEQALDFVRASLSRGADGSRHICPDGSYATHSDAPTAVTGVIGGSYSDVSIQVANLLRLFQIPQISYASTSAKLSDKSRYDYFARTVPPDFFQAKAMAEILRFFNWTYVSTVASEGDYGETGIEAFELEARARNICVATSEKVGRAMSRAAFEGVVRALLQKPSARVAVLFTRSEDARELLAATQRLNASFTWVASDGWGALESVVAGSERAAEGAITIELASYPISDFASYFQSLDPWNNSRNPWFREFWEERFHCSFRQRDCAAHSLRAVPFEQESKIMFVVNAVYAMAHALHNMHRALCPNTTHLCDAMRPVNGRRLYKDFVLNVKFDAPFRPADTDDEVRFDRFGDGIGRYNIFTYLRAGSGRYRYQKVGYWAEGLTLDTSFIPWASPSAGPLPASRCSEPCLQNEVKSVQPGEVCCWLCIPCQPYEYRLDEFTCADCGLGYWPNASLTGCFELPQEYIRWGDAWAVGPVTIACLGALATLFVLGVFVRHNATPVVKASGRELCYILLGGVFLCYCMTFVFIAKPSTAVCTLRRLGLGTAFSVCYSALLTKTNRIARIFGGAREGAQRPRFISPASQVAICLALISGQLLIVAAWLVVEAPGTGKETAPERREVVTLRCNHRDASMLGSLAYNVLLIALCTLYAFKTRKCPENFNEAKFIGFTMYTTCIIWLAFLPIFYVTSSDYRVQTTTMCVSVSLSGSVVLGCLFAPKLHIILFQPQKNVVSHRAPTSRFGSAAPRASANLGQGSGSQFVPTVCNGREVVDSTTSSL
# [1] = biological target: T1, Metabotropic glutamate receptor 2 (Rattus norvegicus, UniProt P31421); experiment: Tested for binding affinity against Metabotropic glutamate receptor 2 in CHO cells using [3H]-7 as radioligand; assay type: cell-based
# [2] = biological target: T1, Metabotropic glutamate receptor 2; experiment: Agonist activity against Metabotropic glutamate receptor 2 expressed in CHO cells was evaluated by measuring forskolin-induced cyclic AMP formation; assay type: functional, cell-based
structure (smiles),measurement,setting,value
N[C@@]1(C(=O)O)CC[C@H]2[C@H](C(=O)O)[C@H]21,Ki,[1],23.4 nM
same,EC50,[2],18.3 nM
